uPA generation – inhibitors of cell surface uPA generation | cell surface uPA generation assay, qHTS | Potency, µM (series often up to 38.3 µM), for the others: top-dose activity change, negative = inhibition, usual class: inhibitors | 330,000 tested, 0.31% active | AID 540303; active means well fitted inhibition curve with a large enough effect; inconclusive means small, poorly fitted or top-dose-only effect; inactive means no such curve, though single readings can be large or run the other way; tested in mouse RAW 264.7 cells; further: potency means the concentration at half of the fitted maximal effect; on the % scale 0 is the no-effect control and ±100 the full control effect; nearly all actives have a fitted effect of over 55% in size
DT40 TDP1 no CPT – qHTS for Inhibitors of human tyrosyl-DNA phosphodiesterase 1 (TDP1): qHTS in cells in absence of CPT | DT40 Tdp1-/- hTDP1 cells, no CPT, ATP luminescence, 48 h | Potency, µM (titrated, usually from 46.2 µM), without a hit: top-dose activity change, negative = growth inhibition, hits mostly inhibitors | 420,000 tested, 15% active; further: potency means the concentration at half of the fitted maximal effect; on the % scale 0 is the no-effect control and ±100 the full control effect; nearly all actives have a fitted effect of over 55% in size
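Chicken DT40 Tdp1-/- cells stably complemented with human TDP1 were seeded at 400 cells/well with DMSO in place of 20 nM camptothecin. After compound pinning, cells grew at least 48 hr at 37 °C; viability read by CellTiter-Glo luminescence.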
DT40 TDP1 CPT – growth inhibition of DT40 Tdp1-/-;hTDP1 cells with camptothecin (screen for TDP1 inhibitors); 420,000 tested, 12% active; chicken DT40 Tdp1-/-;hTDP1 cells + 20 nM CPT, ATP luminescence, 48 h; AID 686979; Potency, µM (highest dose often 46.2 µM), for inactives: at the highest dose activity change, negative = growth inhibition, most hits filed as inhibitors; further: potency means the concentration at half of the fitted maximal effect; on the % scale 0 is the no-effect control and ±100 the full control effect; nearly all actives have a fitted effect of over 55% in size
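Cell growth measured by CellTiter-Glo luminescence after a minimum 48 h, 37 C compound exposure with 20 nM CPT in Tdp1-knockout DT40 cells stably expressing hTDP1, seeded 400/well; qHTS titration format.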
miR-21 reporter – raises the signal of a miR-21 reporter; HeLa miR-21 FLuc reporter, luciferase, 48 h; Potency, µM (top dose mostly 38.3 µM), for inactives: at the highest dose reporter change, positive = more light; AID 2288; 340,000 tested, under 10 active; active = well fitted rising curve with a large enough effect; inconclusive = small, poorly fitted or top-dose-only effect; inactive = no such curve, though single readings can be large or run the other way;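 note: % of control where 0% means no effect; miR-21 action dims this reporter so a rising signal means less miR-21 action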
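HeLa cells stably expressing CMV-driven firefly luciferase with a downstream miR-21 binding sequence, endogenously expressing miR-21, were treated with titrations (up to about 40uM final) for 48 hours at 37 degree Celsius. Luciferase luminescence was read after lysis.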
TDP1 block – inhibitors of human tyrosyl-DNA phosphodiesterase TDP1. 350,000 tested, 0.28% active. Potency, µM (series often up to 130 µM), without a hit: at the top dose activity change, negative = inhibition, usual class: inhibitors. AID 485290. Q9NUW8. recombinant TDP1, AlphaScreen DNA substrate cleavage; further: potency means the concentration at half of the fitted maximal effect; on the % scale 0 is the no-effect control and ±100 the full control effect; nearly all actives have a fitted effect of over 40% in size
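Tdp1 1 nM final; 15 min RT w/ cpd; substrate 15 nM, 5 min; beads 10 ug/ml, 10 min; AlphaScreen read. Neg ctrl: no enzyme.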
* = called active by the depositor; ? = inconclusive; . = no result; [ ] = dose if it differs, or a comment. An excerpt weighted towards active compounds, which were near 16% of everything screened. Unless noted, the call rests on the fitted dose curve; in most records, active means well fitted curve in the direction sought with a large enough effect; inconclusive means small, poorly fitted or top-dose-only effect, or another doubt; inactive means no such curve, though single readings can be large; an effect the other way counts as inactive or inconclusive.

SMILES | uPA generation | DT40 TDP1 no CPT | DT40 TDP1 CPT | miR-21 reporter | TDP1 block
Cc1nc2ccccc2n1CCc1nc2c3ccccc3nc(=S)n2[nH]1 | -3% | -21% | -13% | -13% | 8%
CCOC(=O)c1ccc(NC(=O)Cn2ncc3c(C)n(Cc4ccccc4F)c(C)c3c2=O)cc1 | . | -26% | -8% | -18% | 5%
CCCS(=O)(=O)N1CCN(C(=O)CCC2CCCC2)CC1 | 3% | -10% | 0% | -12% | 3%
Cc1cccc2cc(C#N)c(N3CCN(C)CC3)nc12 | 0% | 26µM* | ? | -10% | 3%
Brc1ccc(-c2csc3[n+]2CCCCC3)cc1 | -1% | ? | -4% | 4% | -4%
c1ccc(-c2c[nH]c3[n+]2CCCCC3)cc1 | 1% | 9.2µM* | -29% | 2% | -9%
COCCNc1nc(-c2ccc(N(C)C)cc2)nc2ccccc12 | . | 21µM* | ? | . | .
COc1cccc(-c2nc(NC3CCNCC3)c3ccccc3n2)c1 | . | 21µM* | ? | . | .
CCCN(CCC)c1nc(-c2ccccc2F)nc2ccccc12 | . | ? | -4% | 14% | -6%[12.3 µM]
CN(C)Cc1ccccc1-c1nc(NC2CCNCC2)c2ccccc2n1 | . | 0.65µM* | 0.37µM* | . | .
CCCCN(CC)c1nc(-c2ccncc2)nc2ccccc12 | -2% | ? | 16µM* | 21% | -5%
CCOc1ccc(S(=O)(=O)N(CC(=O)NCc2ccncc2)c2ccc(C)cc2)cc1 | 7% | ? | ? | 21% | 10%
CC(C)[N+]1(C)[C@@H]2CC[C@H]1CC(OC(=O)[C@@H](CO)c1ccccc1)C2 (stereo not given in full) | . | 0% | 5% | . | 12%[56.1 µM]
CCCCCNC(=O)C(=O)NCC(c1ccc2c(c1)OCO2)N1CCOCC1 (stereo not given) | . | -19% | -12% | 2% | -1%
COC(=O)c1ccccc1S(=O)(=O)NNC(=O)C1COc2ccccc2O1 (stereo not given) | 3% | -14% | -29% | . | -5%
Cc1cc(C)n2nc(CNS(=O)(=O)c3ccc([N+](=O)[O-])cc3)nc2n1 | 6% | 3% | 2% | 3% | 2%
c1ccc(CCNc2nc(-c3ccccn3)nc3ccccc23)cc1 | -16% | 2.9µM* | 3.3µM* | ? | 11%
CCCN(CCC)c1nc(-c2ccccn2)nc2ccccc12 | -18% | 3.3µM* | 1.3µM* | ? | .
Cc1ccc(-c2nc(NCCN(C)C)c3ccccc3n2)cc1 | -8% | ? | -17% | -26% | .
COCCN(CCOC)c1nc(-c2ccc(C)cc2)nc2ccccc12 | 13% | 18µM* | ? | 1% | .

Results in DT40 TDP1 no CPT, for some of the entries so far:
Structure	DT40 TDP1 no CPT
COc1cccc(-c2nc(NC3CCNCC3)c3ccccc3n2)c1	21µM*
CCCN(CCC)c1nc(-c2ccccc2F)nc2ccccc12	?
CN(C)Cc1ccccc1-c1nc(NC2CCNCC2)c2ccccc2n1	0.65µM*
CCCCN(CC)c1nc(-c2ccncc2)nc2ccccc12	?
CCOc1ccc(S(=O)(=O)N(CC(=O)NCc2ccncc2)c2ccc(C)cc2)cc1	?

A few values from above:
DT40 TDP1 CPT result of `CCCN(CCC)c1nc(-c2ccccn2)nc2ccccc12` reads 1.3µM*
TDP1 block result of `CCCCCNC(=O)C(=O)NCC(c1ccc2c(c1)OCO2)N1CCOCC1` (stereo not given) reads -1%

Next structures:
SMILES | uPA generation | DT40 TDP1 no CPT | DT40 TDP1 CPT | miR-21 reporter | TDP1 block
CN(C)c1ccc(-c2nc(NC3CCNCC3)c3ccccc3n2)cc1 | . | 1.2µM* | 1.3µM* | . | -4%[56.1 µM]
O=C1Nc2ccccc2Cc2ccccc21 | . | ? | 2% | . | .
CC(NC(=O)c1ccc(F)cc1)c1ccccc1 (stereo not given) | 0% | 0% | -1% | -5% | 2%
CNc1ccc2ncc(-c3cccc(C(=O)N(C)C)c3)n2n1 | . | 12µM* | ? | . | .
Nc1nc(N)c2cc(S(=O)(=O)c3ccc4ccccc4c3)ccc2n1 | . | 1.8µM* | ? | . | .
Oc1cccc(-c2sc3ccccc3c2-c2ccc(OCCN3CCCCC3)cc2)c1 | . | 12µM* | 18µM* | . | .
COc1cccc(-c2sc3ccc(OC)cc3c2-c2ccc(O)cc2)c1 | 25% | ? | ? | . | 0%
c1ccc(-c2sc3ccccc3c2-c2ccc(OCCN3CCOCC3)cc2)cc1 | 13% | ? | -28% | . | 5%
COc1cccc(-c2sc3ccc(OC)cc3c2-c2ccc(OCCN3CCOCC3)cc2)c1 | 15% | ? | 16µM* | . | 5%
COc1cccc(-c2sc3ccc(OC)cc3c2-c2ccc(OCCN(C)C)cc2)c1 | -17% | 16µM* | 23µM* | . | 11%
COC(=O)c1ccccc1NC(=O)COc1ccc(S(=O)(=O)N2CCCC2)cc1C | 10% | ? | ? | -2% | 9%
CCN(C(=O)COC(=O)c1ccc(C)c(S(=O)(=O)N2CCOCC2)c1)C1CCS(=O)(=O)C1 (stereo not given) | 3% | -13% | -9% | . | -19%

Source: PubChem BioAssay (National Center for Advancing Translational Sciences (NCATS))
